Consider one substance from US5552382A, “Gramicidin as a spermicide against sexual transmission of HIV” (priority 1994, dated 1996).

This series relates to MT-4 lymphocytes. Conditions: MT-4 cells, 3 days continuous exposure; approximate log10 concentration.

Regarding gramicidin, the “CC100 (cytotoxicity)” value is roughly 10 µg.
